Measured values reported in ChEMBL document CHEMBL5113521, “Discovery of a Novel Oral Proteasome Inhibitor to Block NLRP3 Inflammasome Activation with Anti-inflammation Activity” (J Med Chem, 2022).

Amino acid sequences for entries named in this document (tags omitted). A change or cut given only in a name is not applied to a line headed by its entry.
UniProt P28074: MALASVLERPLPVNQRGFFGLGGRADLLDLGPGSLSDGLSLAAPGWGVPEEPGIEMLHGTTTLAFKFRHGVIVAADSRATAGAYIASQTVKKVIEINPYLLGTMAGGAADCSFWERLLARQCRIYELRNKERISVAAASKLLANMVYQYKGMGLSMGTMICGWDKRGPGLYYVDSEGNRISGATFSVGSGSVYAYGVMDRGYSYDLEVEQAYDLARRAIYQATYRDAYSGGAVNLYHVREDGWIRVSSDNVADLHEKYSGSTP

Target: Proteasome Macropain subunit MB1 (Homo sapiens, UniProt P28074)
Assay: Inhibition of 20S proteasome beta5 subunit (unknown origin) using Suc-LLVY-AMC as flurogenic substrate measured after 1 hr by fluorescence based analysis

CC(C)C[C@H](NC(=O)CNC(=O)c1cc(Cl)ccc1Cl)B(O)O [IXAZOMIB]
IC50: 2.88 nM
